Read-outs that look alike come from different tables or passages of the source.
Columns and labels:
[1] = Pharmacokinetics of oral meloxicam and gabapentin in the bovine lameness study (Example 6); details: gabapentin 15 mg/kg PO with meloxicam; Period 1, single dose
[2] = gabapentin powder 15 mg/kg PO with meloxicam 0.5 mg/kg, mean
[3] = gabapentin powder 15 mg/kg PO with meloxicam 0.5 mg/kg, median
[4] = gabapentin whole capsules 10 mg/kg PO, mean
[5] = gabapentin whole capsules 10 mg/kg PO, median

For “1-(aminomethyl) cyclohexane acetic acid [gabapentin]”, the adverse effects (after oral administration of gabapentin (10 mg/kg)) was “No adverse effects were noted”, the AUC [2] was 70290 ng·h/mL and the AUC extrapolated [2] was 1.63%. It also gave an AUMC [2] of 1170.45 h * h * μg/mL, a Cl/F [2] of 3.88 mL/min/kg and a Cmax [2] of 3570 ng/mL. For the same substance, the MRT [2] was 17.05 h, the λz [2] was 0.09 h⁻¹ and the AUC [3] was 71030 ng·h/mL. It also gave an AUC extrapolated [3] of 1.1%, an AUMC [3] of 1127.2 h * h * μg/mL and a Cl/F [3] of 3.52 mL/min/kg. For the same substance, the Cmax [3] was 3700 ng/mL, the MRT [3] was 16.2 h and the “T½ λz” value [3] was 7.4 h. It also gave a λz [3] of 0.094 h⁻¹, an AUC [4] of 59730 ng·h/mL and an AUC extrapolated [4] of 27.78%. It also gave an AUMC [4] of 1273.15 h * h * μg/mL, a Cl/F [4] of 3.42 mL/min/kg and a Cmax [4] of 2970 ng/mL. The MRT [4] was 19.82 h, the “T½ λz” value [4] was 11.02 ± 3.68 h and the λz [4] was 0.08 h⁻¹. For the same substance, the AUC [5] was 61900 ng·h/mL, the AUC extrapolated [5] was 24.4% and the AUMC [5] was 1102.1 h * h * μg/mL. It also gave a Cl/F [5] of 2.8 mL/min/kg, a Cmax [5] of 2900 ng/mL and an MRT [5] of 18.1 h. The “T½ λz” value [5] was 9.2 h, the λz [5] was 0.1 h⁻¹ and the Tmax [1] was 16 h.
